Antibody variant affinities, Ab-14 heavy chain, assay 1

The measurements come from Engelhart et al. 2022 (doi:10.1038/s41597-022-01779-4) through the FLAb antibody collection.

The target is the same throughout: PDVDLGDISGINAS, from the HR2 region of SARS-CoV-2 spike.

Parent: Ab-14, a human scFv built as VH, a (GGGGS)3 linker, VL. Only the CDRs of the heavy chain vary.
VH: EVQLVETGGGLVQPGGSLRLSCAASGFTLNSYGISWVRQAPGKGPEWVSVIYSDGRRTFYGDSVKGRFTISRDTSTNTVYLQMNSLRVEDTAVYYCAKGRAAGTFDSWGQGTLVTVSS
VL: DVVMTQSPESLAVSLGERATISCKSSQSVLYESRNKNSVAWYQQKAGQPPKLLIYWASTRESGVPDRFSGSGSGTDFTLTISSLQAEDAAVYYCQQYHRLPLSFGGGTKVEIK

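Phage display of a naive human antibody library on the peptide gave the parent. In library AAYL49, one, two or three CDR residues were substituted; doubles and triples were drawn at random. The scFvs were displayed on barcoded MATa yeast, the peptide on MATalpha yeast. The frequency of each diploid, read from paired DNA barcodes, reflects how well the two displayed proteins bind. Scores were corrected for input abundance and mapped to Kd with protein pairs of known affinity run in the same pool. There are three technical replicates.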

Each variant is given by its three heavy chain CDRs, as the data file delimits them; those of the parent are GFTLNSYGIS, VIYSDGRRTFYGDSVK, GRAAGTFDS. All variants listed here change V64 of the VH, counted from its first residue. Values are apparent Kd, the geometric mean of the replicates that gave a signal; lower means stronger binding. A pair that was not seen in any replicate is written "nd"; this usually means weak binding, but a binder can also be missed. As a blank, each scFv also met three strains without target: over library AAYL49, 15% of these pairings were detected, typically at 11 µM and seldom below 680 nM. For each scFv, signals with the empty controls are counted beside the result.

With LFTLNSYGIS / VIYSDGRRTFYGDSHL / GRAAGTFDS the result was 17 µM (1 of 3 replicates; controls 0 of 9).
With GFTLNSYPIS / VIYSDGRLTFYGDSWK / GRAAGTFDS the result was 1.6 µM (1 of 3 replicates; controls 1 of 9).
With GFTLNSYGIS / VIVSDGRRTFYGDSHK / GRAAGTFDF the result was nd (0 of 3 replicates; controls 0 of 9).
With GFTLNSYGIS / VIMSDGRRTFYGDSCK / GRCAGTFDS the result was 55 µM (2 of 3 replicates; controls 2 of 9).
With GFTLNHYGIS / VIYSDGRRTFYGDSIK / GRAVGTFDS the result was nd (0 of 3 replicates; controls 2 of 9).
With GFTLNSAGIS / VIYSDGPRTFYGDSRK / GRAAGTFDS the result was nd (0 of 3 replicates; controls 1 of 9).
With GFTLNSYGIS / VIYSDGRRTFYGDSGK / GRCAGTFDS the result was 760 nM (3 of 3 replicates; controls 1 of 9).
With GFGLNSYGIS / VIYSDGRRTFYGDSKP / GRAAGTFDS the result was nd (0 of 3 replicates; controls 0 of 9).
With GFTLNSYGIS / VIQSDGRRTFYGDSQK / GRAAGCFDS the result was 190 µM (2 of 3 replicates; controls 4 of 9).
With GFTLNSVGIS / VIYSDGRRTFYGDSAK / GRAVGTFDS the result was nd (0 of 3 replicates; controls 0 of 9).
With GFTLNSYGIS / VIYSDGRRTFYQDSYK / GRAAGTFDT the result was nd (0 of 3 replicates; controls 0 of 9).
With GFTLNSYGIS / VIYSDGRRDFYGDSFK / GRAAGTQDS the result was 54 µM (1 of 3 replicates; controls 2 of 9).
With GFTLNSYGIS / VMYSDGKRTFYGDSRK / GRAAGTFDS the result was 11 µM (1 of 3 replicates; controls 1 of 9).
With GFTLNSYGIS / VIYSDGRRTMYGDSKK / GRAAGTFDS the result was nd (0 of 3 replicates; controls 5 of 9).
With GFTLVSEGIS / VIYSDGRRTFYGDSWK / GRAAGTFDS the result was nd (0 of 3 replicates; controls 0 of 9).
With GFTLNSYGIS / VIYSDGRRVFYGDSYK / GRAAWTFDS the result was 1.4 µM (1 of 3 replicates; controls 0 of 9).
With GFTLNSYGIS / VIYSNGRRTFYGDSHK / GAAAGTFDS the result was nd (0 of 3 replicates; controls 0 of 9).
With GFTLNSGGIS / VIYSDGRRTFYGDSDK / GLAAGTFDS the result was nd (0 of 3 replicates; controls 2 of 9).
With GFTLNSYGIS / VLYSDGRRTFYGDSNK / GRAAATFDS the result was 7.2 µM (1 of 3 replicates; controls 0 of 9).
With GFTLIGYGIS / VIYSDGRRTFYGDSDK / GRAAGTFDS the result was nd (0 of 3 replicates; controls 0 of 9).
With TFTLNSYSIS / VIYSDGRRTFYGDSGK / GRAAGTFDS the result was 140 µM (1 of 3 replicates; controls 3 of 9).
With GFTLNSYGRS / VIYSDGRRTFYGDSMK / GRVAGTFDS the result was 140 µM (2 of 3 replicates; controls 3 of 9).
With GFTLNSEGIS / VIYSDGRRTFYGDSKK / GRAAGTFDS the result was nd (0 of 3 replicates; controls 0 of 9).
With GFTLNSYAIS / VIYSDGRRTFYGDSYK / GRAAGTFDS the result was nd (0 of 3 replicates; controls 1 of 9).
With GFTLNSYGIS / VIYSEGDRTFYGDSNK / GRAAGTFDS the result was nd (0 of 3 replicates; controls 1 of 9).
With GFTLNSYGIS / VIYSDGRRTFYGDYIK / GRAAGGFDS the result was nd (0 of 3 replicates; controls 1 of 9).
With GFTLNSYGIS / VIYSDGRRTFYGDSYK / GRAAGTFDS the result was 120 nM (1 of 3 replicates; controls 0 of 9).
With GFTLNSYGIV / MIYSDGRRTFYGDSYK / GRAAGTFDS the result was nd (0 of 3 replicates; controls 0 of 9).
With GFTLNSYGIS / VIYSDERRTFYGDSSK / GRAAGTFDS the result was 9.1 µM (1 of 3 replicates; controls 2 of 9).
With GFTLNSYGIS / VIYSDGRSTFYGDSKK / GRAQGTFDS the result was 16 µM (1 of 3 replicates; controls 1 of 9).
With GFTLNSYGIS / VIYSDGSRTFYGDSDK / GIAAGTFDS the result was nd (0 of 3 replicates; controls 0 of 9).
With GFTLNSYGIS / VIYSDGRRTFYGDSEC / WRAAGTFDS the result was 3.1 µM (2 of 3 replicates; controls 1 of 9).
With GFTLNSYGIS / VIYSDGWRTFYGDSYK / GRAAGTFDS the result was 7.5 µM (3 of 3 replicates; controls 1 of 9).
With GFTLNSYGIS / VIYSDGRRTAYGDSSK / GVAAGTFDS the result was 34 nM (3 of 3 replicates; controls 2 of 9).
With GFNLNSYGIS / VIYSDGRRTFYFDSNK / GRAAGTFDS the result was nd (0 of 3 replicates; controls 1 of 9).
With GFTLNSYGIS / VIYSDGRRTFYGDSDK / GRAAGTFDS the result was nd (0 of 3 replicates; controls 0 of 9).
With GFTLNSYGIS / VIYSDGERTFYGRSRK / GRAAGTFDS the result was nd (0 of 3 replicates; controls 1 of 9).
With GFTLNSYGIS / VIYSDGRRTFYGDSCK / GRAAGAFDT the result was 130 nM (3 of 3 replicates; controls 2 of 9).
With GFTLNSYGIS / VIYSDGRRTFYGDSPK / GRAAGTWQS the result was 8.9 µM (2 of 3 replicates; controls 2 of 9).

Top 4 of the variants detected in all replicates, tightest first:

Variant GFTLNSYGIS / VIYSDGRRTAYGDSSK / GVAAGTFDS showed 34 nM (3 of 3 replicates; controls 2 of 9).
Variant GFTLNSYGIS / VIYSDGRRTFYGDSCK / GRAAGAFDT showed 130 nM (3 of 3 replicates; controls 2 of 9).
Variant GFTLNSYGIS / VIYSDGRRTFYGDSGK / GRCAGTFDS showed 760 nM (3 of 3 replicates; controls 1 of 9).
Variant GFTLNSYGIS / VIYSDGWRTFYGDSYK / GRAAGTFDS showed 7.5 µM (3 of 3 replicates; controls 1 of 9).